IL2 activator – activates IL-2 in a cell-based reporter assay | IL-2 activation reporter assay, cell-based qHTS; stimulated with anti-CD3/CD4/CD28 beads; in transgenic mouse T cells | activation, % (series mostly up to about 46 µM) | actives 0.065% (n = 360,000); in the data active = activation above about 50%; inconclusive = mostly about 30% to 49%; note: 0% is about no effect
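Unstimulated transgenic mouse T cells, 750 per well, received compound and, after 60 minutes, anti-CD3/anti-CD4 bead plus anti-CD28 stimulation. EGFP and DsRed were quantified after 18 hours.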
TCR activator – activates T cell receptor signaling; primary human leukocytes, anti-CD3, IL-2 HTRF, 48 h; Potency, µM (series often up to 9.22 µM), for inactives: top-dose activation of IL-2 secretion, most hits filed as activators; AID 504894; 330,000 tested, under 10 active; note: % of control where 0% means no effect
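IL-2 produced over 48 hr by a-CD3 bead-stimulated primary human leukocytes exposed to compounds was detected with a homogeneous time-resolved FRET immunoassay, 665nm acceptor signal after 320nm excitation.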
RXFP1 agonist – RXFP1 (human) receptor agonism; HEK293T-RXFP1 cAMP TR-FRET, 30 min; response scale: percent of porcine relaxin response, buffer zero; Potency, µM (top dose mostly 57.5 µM), inactives show at the highest dose activation, usual class: activators; actives 0.3% (n = 370,000); note: potency is the fitted concentration of half-maximal effect; % is set by controls: 0 for no effect and ±100 for the full control effect; nearly all actives have a fitted effect of over 60% in size
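HEK293T cells stably expressing RXFP1 were pretreated with the PDE4 inhibitor Ro 20174, exposed to compounds for 30 min at 37C, lysed, and cAMP was read by TR-FRET. Data normalized to buffer (basal) and 29 nM porcine relaxin (100%).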
RXFP1 antag – antagonists of human relaxin receptor RXFP1; Q9HBX9; HEK293-RXFP1, relaxin-stimulated cAMP HTRF, 30 min; hits give low values; activity change, negative = inhibition, % at 57.5 µM; actives 0.59% (n = 350,000); AID 1259400;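 active = activity change of -60% or lower, but not beyond a set lower limit; inconclusive = change between -60% and -40%, or beyond the set limit; inactive = change above -40%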; note: % is set by controls: 0 for no effect and ±100 for the full control effect
miR-21 FLuc – raises the signal of a miR-21 reporter | HeLa miR-21 FLuc reporter, luciferase, 48 h | Potency, µM (doses to about 38.3 µM), without a hit: at the top dose reporter change, positive = more light | 340,000 tested, under 10 active | AID 2288; active = well fitted rising curve with a large enough effect; inconclusive = small, poorly fitted or top-dose-only effect; inactive = no such curve, though single readings can be large or run the other way;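 note: % of control where 0% means no effect; miR-21 action dims this reporter so a rising signal means less miR-21 action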
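HeLa cells stably expressing CMV-driven firefly luciferase with a downstream miR-21 binding sequence, endogenously expressing miR-21, were treated with titrations (up to about 40uM final) for 48 hours at 37 degree Celsius. Luciferase luminescence was read after lysis.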
PINK1 modulator – PINK1 expression modulation. PINK1 immunofluorescence, high-content cytometry, 24 h. Potency, µM (titrated, usually from 76.6 µM), inactives show at the top dose activation (PINK1 increase), hits mostly activators. actives 0.2% (n = 410,000). AID 624263; active = well fitted activation curve with a large enough effect; inconclusive = small, poorly fitted or top-dose-only effect; cell line not stated here; note: potency is the fitted concentration of half-maximal effect; % of control where 0% means no effect; nearly all actives have a fitted effect of over 65% in size
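Decision-based qHTS: stable cells, 24 h exposure to five compound concentrations, CCCP as control. Fixed cells stained for PINK1 plus nuclear, mitochondrial and cell markers, cytometer read.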
Numbers without * were called inactive; ? = inconclusive; . = not tested or not shown; [ ] = another dose, or the depositor's remark. An excerpt weighted towards active compounds, which were near 0.78% of everything screened. Unless noted, calls come from the whole dose curve; as a rule, active = well fitted curve in the direction sought with a large enough effect; inconclusive = small, poorly fitted or top-dose-only effect, or another doubt; inactive = no such curve, though single readings can be large; an effect the other way counts as inactive or inconclusive.

SMILES	IL2 activator	TCR activator	RXFP1 agonist	RXFP1 antag	miR-21 FLuc	PINK1 modulator
C[C@]12CCC(=O)C=C1CCC1C2CC[C@@]2(C)C1CC[C@]2(C)O (some centres not stated)	0	3%	.	-2	.	-2%
C[C@]12C/C(=C/O)C(=O)C[C@@H]1CC[C@@H]1[C@@H]2CC[C@@]2(C)[C@H]1CC[C@]2(C)O	.	.	.	-99*	.	.
O=C(CCCCl)c1ccc(F)cc1	.	.	.	-10	.	.
CN(C)CC(C(=O)Cc1ccccc1)c1ccccc1 (configuration not stated)	-1	-2%	.	-118*	.	-5%
O=[N+]([O-])c1ccc(N(CCO)CCO)c2c1no[n+]2[O-]	-1	.	.	4	.	-2%
CN1CCN(c2ccc([N+](=O)[O-])c3no[n+]([O-])c23)CC1	-8	0%	4%	-87*	?	8%
O=C(O)c1ccc(=O)[nH]c1	.	.	.	8	.	.
COc1ccc(-c2cc(-c3ccccc3)[n+](C)c(-c3ccccc3)c2)cc1	-1	5%	2%	-7	?	?
C[n+]1c(-c2ccccc2)cc(CCCCc2cc(-c3ccccc3)[n+](C)c(-c3ccccc3)c2)cc1-c1ccccc1	-4	5%	2%	4	?	32µM*
CC(=O)c1ccc2c(c1)C1C(Cl)C(Sc3ccccc3[N+](=O)[O-])CC1C(c1ccccc1)N2 (configuration not stated)	-1	-10%	-8%	-81*	-1%	-2%
O=C(O)c1sc2cc(Cl)ccc2c1Cl	.	.	14µM*	.	0%	.
O=C(c1sc2ccccc2c1Cl)N1CCC2(CC1)OCCO2	0	0%	0%	21	-32%	9%[38.3 µM]
CCC1CC2CC3c4[nH]c5ccc(OC)cc5c4CCN(C2)C13 (configuration not stated)	.	.	.	-31	.	.
CC1COC2(c3ccccc3Cl)c3cc(Cl)ccc3NC(=O)CN12 (configuration not stated)	.	.	.	-36	.	.
[O-]c1ccccc1-[n+]1c(-c2ccccc2)cc(-c2ccccc2)cc1-c1ccccc1	0	-1%	1%	.	.	16µM*
Oc1ccccc1-[n+]1c(-c2ccccc2)cc(-c2ccccc2)cc1-c1ccccc1	0	-9%	2%	.	.	.
Nc1ccccc1-[n+]1c(-c2ccccc2)cc(-c2ccccc2)cc1-c1ccccc1	3	3%	-1%	-35	?	0%
Brc1ccc(-[n+]2c(-c3ccccc3)cc(-c3ccccc3)cc2-c2ccccc2)cc1	0	-2%	-1%	.	.	25µM*
Cc1ccccc1-[n+]1c(-c2ccccc2)cc(-c2ccccc2)cc1-c1ccccc1	-1	11%	0%	.	.	10µM*
CCNC(C)Cc1ccc2c(c1)OCO2 (configuration not stated)	.	.	.	8	.	.

Entries from the list above that contain a halogen, in the order listed:
SMILES	IL2 activator	TCR activator	RXFP1 agonist	RXFP1 antag	miR-21 FLuc	PINK1 modulator
O=C(CCCCl)c1ccc(F)cc1	.	.	.	-10	.	.
CC(=O)c1ccc2c(c1)C1C(Cl)C(Sc3ccccc3[N+](=O)[O-])CC1C(c1ccccc1)N2 (configuration not stated)	-1	-10%	-8%	-81*	-1%	-2%
O=C(O)c1sc2cc(Cl)ccc2c1Cl	.	.	14µM*	.	0%	.
O=C(c1sc2ccccc2c1Cl)N1CCC2(CC1)OCCO2	0	0%	0%	21	-32%	9%[38.3 µM]
CC1COC2(c3ccccc3Cl)c3cc(Cl)ccc3NC(=O)CN12 (configuration not stated)	.	.	.	-36	.	.
Brc1ccc(-[n+]2c(-c3ccccc3)cc(-c3ccccc3)cc2-c2ccccc2)cc1	0	-2%	-1%	.	.	25µM*

Continuation:
SMILES	IL2 activator	TCR activator	RXFP1 agonist	RXFP1 antag	miR-21 FLuc	PINK1 modulator
Cc1cc(C)cc(N2C(=O)NC(=O)/C(=C/c3cccn3-c3ccc(Cl)cc3)C2=O)c1	-4	5%[46.1 µM]	0%	-30	-1%	-1%
Cc1cccc(N2C(=O)NC(=O)/C(=C\C=C\c3ccco3)C2=O)c1	-2	-2%	1%	-68*	12%	2%
Cc1cccc(N2C(=O)NC(=O)/C(=C\c3cccn3-c3ccc(Cl)cc3)C2=O)c1	0	-2%	-2%	-71*	9%	-2%
Cc1ccc(N2C(=O)NC(=O)/C(=C\C=C\c3ccco3)C2=O)cc1C	4	7%[46.1 µM]	8%	-70*	?	0%
Cc1ccc(N2C(=O)NC(=O)/C(=C\C=C\c3ccco3)C2=O)cc1	-4	0%	2%	-25	?	0%
CN1CC[C@]23c4c5ccc(O)c4OC2C(O)CCC3[C@H]1C5 (some centres not stated)	.	.	.	16	.	.
O=C1CN2CCOC2(c2ccccc2Cl)c2cc(Cl)ccc2N1 (configuration not stated)	.	.	.	-8	.	.
CCN(CC)c1ccc(/C=N/c2sc3c(c2C#N)C2CCN3CC2)c(O)c1	53*	-3%	-1%	-15	-12%	14%
O=C1NC(=O)N(Cc2ccc(F)cc2)C(=O)/C1=C/c1cccs1	0	-4%	2%	-74*	3%	-1%
COc1cc2nc(N(C)C)c(CNCCc3c[nH]c4ccccc34)cc2c(OC)c1OC	.	.	.	.	.	0%
C=CCC1(C(C)CC)C(=O)NC(=O)NC1=O (configuration not stated)	.	.	.	-23	.	.
Clc1ccc(C(c2ccc(Cl)cc2)C(Cl)(Cl)Cl)cc1	.	.	.	-72*	.	4%
Nc1ccc(C2(c3ccc(N)cc3)c3ccccc3-c3ccccc32)cc1	-3	-8%[46.1 µM]	0%	-80*	-2%	0%
CNc1ccc2nc3ccccc3[n+](C)c2c1	-6	37%	9%	-92*	30%	6%
C[n+]1c2ccccc2nc2ccc(NCCO)cc21	0	12%	17%	-39	25%	-2%
Cc1cccc(NP(=O)(Oc2ccccc2)Oc2ccccc2)c1C	-3	1%	0%	-64*	28%	1%
O=P(Nc1ccccc1)(Oc1ccccc1)Oc1ccccc1	0	6%	4%	-6	14%	1%
C[C@]12CC[C@H]3[C@@H](CC[C@@]45O[C@H]4C(O)=C(C#N)C[C@]35C)[C@H]1CC[C@H]2O	.	.	.	-22	.	.
CN1CC=C2C(C#N)=C(N)C(C#N)(C#N)C(c3ccncc3)C2C1 (configuration not stated)	2	7%	1%	9	-1%	25µM*
COc1ccc(C(=O)c2sc3nc(C)cc(-c4cccs4)c3c2N)cc1OC	550*	?	5%	-8	-1%	4%
Clc1cccc(CNCCc2c[nH]c3ccccc23)c1	0	7%	1%	-84*	-5%	7%
O=c1[nH]c2ccccc2n1C1CCNCC1	.	.	.	17	.	.
Nc1ncnc2c1ncn2[C@@H]1O[C@H](COP(=O)(O)CP(=O)(O)O)[C@@H](O)[C@H]1O	0	2%	.	.	.	1%
CCNC(=O)[C@H]1O[C@@H](n2cnc3c(N)ncnc32)[C@H](O)[C@@H]1O	0	-8%	1.3µM*	.	-36%	0%
O=c1oc2ccccc2c(O)c1C(CC(O)c1ccc(-c2ccc(Br)cc2)cc1)c1ccccc1 (configuration not stated)	.	.	.	-64*	.	.
O=c1[nH]c2cc(Cl)ccc2n1C1CCNCC1	.	.	.	17	.	.
CC(C)CN(CC(C)C)c1ccc(C=C2C(=O)NC(=S)NC2=O)cc1[N+](=O)[O-]	0	6%	0%	-63*	-17%	?
ClCCCN1CCN(c2cccc(Cl)c2)CC1	.	.	.	14	.	.

Screening data (PubChem)
